According to paper PMC8640094, “Diaportones A–C: Three New Metabolites From Endophytic Fungus Diaporthe foeniculina BZM-15” (Frontiers in Chemistry, 2021):

System: MCF-7 (breast cancer)
Test: MTT cytotoxicity assay, MCF-7 cells
Assay type: cell-based
Details: Homo sapiens, MCF7, 72 h, MCF-7, c 8.00 μM, three replicates; read-out: cell inhibition
Description: The cytotoxicity of all compounds against three human tumor cell lines, SF-268 (CNS cancer), MCF-7 (breast cancer), and HepG2 (hepatoma cancer), and normal cell line LX-2 was tested using the MTT assay. Adriamycin was used as a positive control. All cells were seeded into 96-well plates at 5 × 10^4 cells/ml and incubated at 37°C under a 5% CO2 atmosphere for 24 h. Then, the tested compounds were added. After 72 h, MTT solution was added into each well, which was further incubated. The cell-free supernatant was removed and formazan crystals were subsequently dissolved in DMSO. Optical density (OD) was recorded at 490 nm on a microplate reader to calculate the IC50 values.

`COc1cccc2c1C(=O)c1c(O)c3c(c(O)c1C2=O)C[C@@](O)(C(=O)CO)C[C@@H]3O[C@H]1C[C@H](N)[C@H](O)[C@H](C)O1` [Adriamycin, reference compound] was tested, and the inhibition at 8 µM was 78.2%.
